The test system of the assay is E. coli KA797 cells carrying pUK21 with KPC-2 (Tat). Type of assay: cell-based. The following applies: in combination with 100 μg/ml carbenicillin.

Consider `CC1(C)[C@H](C(=O)O)N2C(=O)C[C@H]2S1(=O)=O` [sulbactam], for which the MIC of inhibitor was found to be 16 µg/mL.

Values taken from paper PMC12274840 (The Journal of Biological Chemistry, 2025).
